Source: patent publication US20260384396A1, “PROCESS FOR THE PREPARATION OF PIROCTONE, INCLUDING CRYSTALLIZATION OR PRECIPITATION, PIROCTONE PARTICLES AND PROCESS FOR THE PREPARATION OF PIROCTONE OLAMINE” (published 2026)

Experiments:
[1] = Solubility / dissolution time of piroctone in surfactant-containing formulation (visual check until clear); details: 0.5 g piroctone dispersed in approx. 10 g water (demineralized), approx. 45 g Genapol LRO Liquid added, approx. 300 rpm; until solution is clear
Method: The solubility of the piroctone of Examples 1 to 4 was tested as follows:
0.5 g Piroctone are dispersed in approx. 10 g water (demineralized). In a next step approx.
45 g Genapol LRO Liquid (which is a surfactant) is added and the solution stirred at approx. 300 rpm. The samples are checked visually, and the time measured until the solution is clear and all solid dissolved.

[2] = Particle size distribution (PSD) of piroctone, Malvern Mastersizer 3000; details: volume distribution; average of two measurements; obscuration 0.5% to 1.5%
Method: In relation to the particle size distribution measures used herein, d50, d(50) or D50, the median, is defined as the diameter where half of the population lies below this value. Similarly, 10 percent of the population lies below the d10, d(10) or D10 diameter and 90 percent of the population lies below the d90, d(90) or D90 diameter. If not stated otherwise, the d90, d10, d90 values are based on a volume distribution.
The particle size distribution (PSD) was determined as follows: • PSD instrument: Malvern Mastersizer 3000.
Sample preparation and PSD measurement: Desired quantity of about 1 g is put into sample hopper unit and measurement is started with obscuration between 0.5% to 1.5%.
PSD measurements: Every sample is analyzed twice. The values given in the above Table are averages of the two measurements.

Row | Dissolution time [1] | d10 [2] | d50 [2] | d90 [2] | SMILES
1 | 20 to 25 min | 7.2 μm | 30 μm | 76.9 μm | Cc1cc(CC(C)CC(C)(C)C)n(O)c(=O)c1 (stereo not shown) [Example 4]
2 | 30 to 35 min | 12 μm | 49.6 μm | 120 μm | Cc1cc(CC(C)CC(C)(C)C)n(O)c(=O)c1 (stereo not shown) [Example 2]
3 | 30 to 35 min | 13.6 μm | 57.9 μm | 129 μm | Cc1cc(CC(C)CC(C)(C)C)n(O)c(=O)c1 (stereo not shown) [Example 1]
4 | 20 to 25 min | 8.6 μm | 33.7 μm | 82.5 μm | Cc1cc(CC(C)CC(C)(C)C)n(O)c(=O)c1 (stereo not shown) [Example 3]
